pIC50: −log10 of the molar value. Like-named read-outs stand apart in the source and are kept apart here.
What was measured:
Type in all cases: cell-based, human
SKBR3R cells [1] = system: SKBR3R cells
Protocol: (§1) Cell culture. SKBR3 and BT474 cells were obtained from ATCC (Rockville, Md.). SKBR3 and BT474 were maintained in McCoy's 5a modified medium and Dulbecco's modified Eagle medium/Ham F12 (1:1) supplemented with 10% heat-inactivated FBS, 100 units/ml penicillin, […] streptomycin, and 2 mM L-glutamine. […] Cells were treated with GO-203 and CP-2 peptides (AnaSpec). […] Viability was determined by trypan blue exclusion.
(§2) Determination of IC50 and synergism. Cells were seeded on 96-well plates in 100 μl of growth medium at a density of 3000 cells per well. After 24 h, the cells were exposed to drugs in treatment medium for an additional 72 h. Cell viability was assessed using the alamar blue viability assay (Invitrogen). Triplicate wells of each treatment were analyzed and each experiment was done three times. The IC50 values were determined by nonlinear regression of the dose-response data using Prism 5.0 for Mac OSX (GraphPad Software). […] Cell viability was determined after treatment for 72 h. The combination index (CI) was calculated to determine the presence of synergism (CI<1) or antagonism (CI>1) using CalcuSyn software (Biosoft).
(§3) Assessment of drug interaction by Bliss independence. […] Using this equation, if the experimentally measured inhibition is greater than Ei, then the combination is synergistic.38 Plots were generated by Prism GraphPad software.

BT474R cells = system: BT474R cells
Protocol: as §1, §2, §3

SKBR3R cells [2] = test: Cell number by Trypan blue staining; conditions: 80 nM trastuzumab, 72 h
Protocol: (FIG. 3A) SKBR3 (left) and SKBR3R (right) cells (1×10^4 per well) were left untreated or treated with 80 nM trastuzaumb for 72 h. Cell number (mean±s.e. of three determinations) was determined by Trypan blue staining. (FIG. 3B) Lysates from SKBR3 and SKBR3R cells were immunoblotted (IB) with the indicated antibodies. (FIG. 3C) Anti-MUC1-C precipitates from SKBR3 and SKBR3R cells were immunoblotted with the indicated antibodies. […] Cell number (mean±s.e. of three determinations) was determined by Trypan blue staining. (FIG. 3E) Lysates from BT474 and BT474R cells were immunoblotted with the indicated antibodies. (FIG. 3F) Anti-MUC1-C precipitates from BT474 and BT474R cells were immunoblotted with the indicated antibodies. IP, immunoprecipitated.
FIGS. 5A-G. Targeting MUC1-C in trastuzumab-resistant cells suppresses HER3 activation and inhibits growth and clonogenic survival. […] The colony number is expressed as the mean±s.e. of three replicates. […] Cell number (mean±s.e. of three determinations) was determined by Trypan blue staining. […] Cell number (mean±s.e. of three determinations) was determined by Trypan blue staining. […] The results are expressed as tumor volume (mean±s.e. for the eight mice in each group).
Cell culture. […] Viability was determined by trypan blue exclusion.

BT474 cells = conditions: 72 h, read-out: IC50 Values, Trasutuzumab
Protocol: as §1, §2

pIC50 (BT474 cells) | IC50 for trastuzumab, in words (SKBR3R cells [1]; SKBR3R cells (trastuzumab-resistant)) | IC50 for trastuzumab, in words (BT474R cells; BT474R cells (trastuzumab-resistant)) | Compound | Fold Change (SKBR3R cells [1]; SKBR3R cells, lapatinib IC50 alone vs with GO-203) | Fold Change (SKBR3R cells [1]; SKBR3R cells, lapatinib IC50 alone vs with trastuzumab and GO-203) | Fold Change (BT474R cells; BT474R cells, lapatinib IC50 alone vs with trastuzumab and GO-203) | cell growth (cell number) (SKBR3R cells [2]) | cell growth inhibition, in words (SKBR3R cells [1]; SKBR3R cells, 72 h, GO-203 alone, trastuzumab alone at 40 nM, or both)
– | – | – | CS(=O)(=O)CCNCc1ccc(-c2ccc3ncnc(Nc4ccc(OCc5cccc(F)c5)c(Cl)c4)c3c2)o1 [Lapatinib] | 1.45 | 1.82 | 6.8 | – | –
6.88 | no definable IC50 | no definable IC50 | Trastuzumab: humanized monoclonal antibody that binds to the HER2 extracellular domain | – | – | – | not inhibited | no effect

Reference: patent US9789156B2, “Combination anti-human epidermal growth factor receptor 2 (anti-HER2) cancer therapy using mucin 1 (MUC1) peptides and hemotherapeutics” (DANA-FARBER CANCER INSTITUTE, INC., priority 2013, dated 2017)
